One may read the inhibition as the drop in the measured response relative to a control, in per cent.

Amino acid sequences for entries named in this document (tags omitted). A change or cut given only in a name is not applied to a line headed by its entry.
UniProt O14727: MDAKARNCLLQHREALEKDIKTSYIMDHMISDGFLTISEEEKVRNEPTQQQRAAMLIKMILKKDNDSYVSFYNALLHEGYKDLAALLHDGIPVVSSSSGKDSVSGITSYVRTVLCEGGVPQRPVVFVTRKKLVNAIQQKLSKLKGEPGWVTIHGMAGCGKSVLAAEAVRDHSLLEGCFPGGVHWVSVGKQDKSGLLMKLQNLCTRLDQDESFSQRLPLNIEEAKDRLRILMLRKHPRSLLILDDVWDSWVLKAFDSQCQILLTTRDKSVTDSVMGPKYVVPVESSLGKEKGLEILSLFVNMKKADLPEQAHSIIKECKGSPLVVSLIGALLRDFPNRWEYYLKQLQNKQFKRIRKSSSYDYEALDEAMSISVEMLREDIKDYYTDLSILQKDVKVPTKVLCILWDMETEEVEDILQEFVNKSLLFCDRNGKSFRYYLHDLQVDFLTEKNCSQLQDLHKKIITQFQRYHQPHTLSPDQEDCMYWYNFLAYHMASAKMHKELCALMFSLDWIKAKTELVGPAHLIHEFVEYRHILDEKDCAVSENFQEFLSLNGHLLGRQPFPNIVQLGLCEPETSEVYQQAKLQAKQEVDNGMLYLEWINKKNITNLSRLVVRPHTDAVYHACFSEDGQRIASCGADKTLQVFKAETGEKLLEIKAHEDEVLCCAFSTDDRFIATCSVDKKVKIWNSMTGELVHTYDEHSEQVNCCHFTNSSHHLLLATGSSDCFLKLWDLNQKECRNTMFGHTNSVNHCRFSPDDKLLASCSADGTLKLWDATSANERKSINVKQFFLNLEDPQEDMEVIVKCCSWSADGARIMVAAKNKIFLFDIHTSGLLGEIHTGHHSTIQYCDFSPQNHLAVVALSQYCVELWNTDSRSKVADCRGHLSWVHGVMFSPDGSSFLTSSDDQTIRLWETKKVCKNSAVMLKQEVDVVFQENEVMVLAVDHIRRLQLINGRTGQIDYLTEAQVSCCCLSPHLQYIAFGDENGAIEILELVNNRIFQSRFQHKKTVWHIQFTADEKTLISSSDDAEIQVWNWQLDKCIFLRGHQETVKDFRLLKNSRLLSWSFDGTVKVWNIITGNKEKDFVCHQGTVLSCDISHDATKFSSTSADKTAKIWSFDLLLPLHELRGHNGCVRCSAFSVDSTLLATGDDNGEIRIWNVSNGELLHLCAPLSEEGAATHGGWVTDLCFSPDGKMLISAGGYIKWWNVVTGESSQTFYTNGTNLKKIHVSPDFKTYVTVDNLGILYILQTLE

SMILES strings stand for the structures. This is a selection; strong and weak results do not stand in their true shares. The source made the active and inactive calls. The calls were made as follows: active = inhibition of at least 40% at 20 µM; inactive = the rest.

For this assay, the target named is Apoptotic protease-activating factor 1 (Homo sapiens) (UniProt O14727). In words: blockers of Apaf-1-driven caspase-3 activation – biochemical, DEVD-Rh110 fluorescence, uHTS, primary screen (AID 489030).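 Also: plate controls were DMSO wells for no effect and DEVD-CHO caspase inhibitor wells for full effect.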 To be noted: reconstituted apoptosome caspase-3 activity, at 20 µM, hits give high values.
Take `CC(C)c1ccc(OP(=O)(Nc2ccccn2)Oc2ccccc2F)cc1` (stereo not given): the inhibition is inactive: 6.65%.
`Nc1ccccc1[As](=O)(O)c1ccccc1`: the inhibition is inactive: 8.28%.
Turning to `O=C(O)COc1ccc([As](=O)(O)O)cc1[N+](=O)[O-]`, the inhibition was inactive: -3.15%.
The result for `O=P(Nc1nccs1)(c1ccccc1)c1nc2ccccc2s1` (stereo not given) reads inactive: 6.54%; that for `O=P(Nc1nccs1)(Oc1ccccc1)Oc1ccccc1`, inactive: 8.87%; that for `CCOP1(=S)c2c(C)nn(CCC#N)c2N=C(c2ccccc2F)N1C` (stereo not given), inactive: -16.1%.
`CS(=O)(=O)c1cc([N+](=O)[O-])c2no[n+]([O-])c2c1`: the inhibition is inactive: 11.9%.
The result for `CCOP1(=S)c2c(C)nn(CCC#N)c2N=C(c2ccc(F)cc2)N1C` (stereo not given) reads inactive: -17.2%; that for `CN(C(=O)Cc1ccccc1)[C@@H]1CC[C@]2(CCCO2)C[C@H]1N1CCCC1`, inactive: -7.03%.
For `N#CCCN(C(=O)COC(=O)C(O)(c1ccccc1)c1ccccc1)c1ccc(F)cc1`, the inhibition was inactive: -3.31%.
For the compound `CN(C(=O)Cc1ccc(Cl)c(Cl)c1)[C@H]1CC[C@@]2(CCCO2)C[C@@H]1N1CCCC1`, the inhibition is inactive: -4.78%.
In the case of `CN(C)C(=O)c1cc([N+](=O)[O-])cc2c1-c1c(cc([N+](=O)[O-])cc1[N+](=O)[O-])C2=O`, the inhibition was inactive: 24.9%.
Regarding `O=[N+]([O-])c1ccc2c(c1)nnn2O`, the inhibition is inactive: -13.1%.
Consider `NC(=O)Nc1ccc([As](=O)(O)O)cc1`, for which the inhibition is inactive: -1.24%.
Then `O=[As](O)(c1cccc(O)c1)c1cccc(O)c1`, with inactive: -23.5%; and `Cc1cccc(OCC(=O)OC2CN3CCC2CC3)c1` (stereo not given), with inactive: 2.27%.
The result for `O=C(OC1CN2CCC1CC2)c1ccc(Cl)cc1` (stereo not given) reads inactive: -21.2%; that for `CS(=O)(=O)c1ccc(Cl)c(NC(=O)COC(=O)C(O)(c2ccccc2)c2ccccc2)c1`, inactive: -7.46%; that for `COc1cc(C(=O)NCC2(N3CCOCC3)CCCCC2)cc(Cl)c1OC(C)C`, inactive: 10.5%.
The result for `O=[As](O)(O)c1cccnc1` reads inactive: -3.55%; that for `CCOP(=O)(Nc1cccc2ccccc12)OCC`, inactive: -12.9%.
In the case of `COc1cc(C2NCCC3(OCCO3)C2(C)C)cc(OC)c1OC` (stereo not given), the inhibition is inactive: -7.35%.
`Cc1ccc(NCCc2c([N+](=O)[O-])cc([N+](=O)[O-])cc2[N+](=O)[O-])cc1`: the inhibition was inactive: 20.4%.
Then `CCCOP(=S)(Nc1nc(N)cc(=O)[nH]1)OCCC`, with inactive: 16.3%.
For `CC(C)(C)C(=O)NC(Sc1ncccn1)C(Cl)(Cl)Cl` (stereo not given), the inhibition is inactive: 1.81%.
For `Clc1n[nH]nc1-c1nn[nH][15n]1`, the inhibition is inactive: -4.96%.
Take `CCOP(=O)(NC(=NC(C)c1ccccc1)NC(C)c1ccccc1)OCC` (stereo not given): the inhibition was inactive: 11.7%.
Turning to `O=P1(Nc2ccccn2)COc2ccccc2OC1`, the inhibition is inactive: 0.297%.
On to `CCC1=CC2Cc3nc4ccc(Cl)cc4c(N)c3C(C1)C2` (stereo not given), for which the inhibition is inactive: 15.1%.
As for `CN(CCCl)Cc1cc(Cl)c(NC2=NCCN2)c(Cl)c1`, the inhibition was inactive: 3.37%.
Turning to `CCOP(=O)(Nc1ccc(C)cn1)OCC`, the inhibition was inactive: 3.33%.
In the case of `CC(C)/C=N\N=C(\N)N[N+](=O)[O-]`, the inhibition is inactive: 4.15%.
Consider `CN(C(=O)Cc1ccc(Cl)c(Cl)c1)[C@@H]1CCCC[C@H]1N1CCCC1`, for which the inhibition was inactive: 17.1%.
The result for `CC1(CBr)Cn2c(nc3ccccc3c2=O)S1` (stereo not given) reads inactive: -3.27%; that for `O=[As](O)(c1ccccc1Br)c1ccccc1Br`, inactive: 0.619%.
Regarding `COc1ccccc1CNC(=O)COC(=O)C(O)(c1ccccc1)c1ccccc1`, the inhibition was inactive: 8.71%.
In the case of `CN(C)C1(CNC(=O)c2ccc(S(C)(=O)=O)cc2)CCCCC1`, the inhibition was inactive: -1.39%.
`O=C(/C=C/c1ccccc1)OC1CN2CCC1CC2` (stereo not given): the inhibition is inactive: -13.3%.
Then `CC1CCC(C(C)C)C(OP(=O)(Nc2ccccn2)c2ccccc2)C1` (stereo not given), with inactive: 12.2%; and `Cc1ccc(C(=O)OC2CN3CCC2CC3)cc1` (stereo not given), with inactive: -1.66%; and `Cc1nn(-c2ccccc2)c2c1P(=O)(N1CCOCC1)N(C)C(c1ccccc1)=N2` (stereo not given), with inactive: -10.2%.
`Nc1cccc([As](=O)(O)c2ccccc2)c1`: the inhibition was inactive: 4.25%.
Then `O=P1(Nc2ccc(Br)cn2)COc2ccccc2OC1`, with inactive: 8.02%; and `NS(=O)(=O)c1cccc(NC(=O)COC(=O)C(O)(c2ccccc2)c2ccccc2)c1`, with inactive: 0.171%.
Take `O=[As](O)(c1cccs1)c1cccs1`: the inhibition was inactive: -2.83%.
`Cc1ccc(OCC(=O)OC2CN3CCC2CC3)cc1` (stereo not given): the inhibition is inactive: -1.67%.
For `O=P1(Nc2ncccn2)COc2ccccc2OC1`, the inhibition is inactive: 4.67%.
As to `C[C@H]1OP(=O)(Oc2ccccc2)[C@H](O)[C@H](O)[C@H]1N=[N+]=[N-]` (stereo not given in full), the inhibition was inactive: -9.11%.
For the compound `O=P(Nc1nc2ccccc2s1)(c1ccccc1)c1ccccc1`, the inhibition was inactive: 0.769%.
On to `O=P(Nc1ccccn1)(c1ccc(Br)cc1)c1ccc(Br)cc1`, for which the inhibition was inactive: 6.73%.
The result for `CN(C)C1(CNC(=O)c2ccc(Cl)c(S(N)(=O)=O)c2)CCCCC1` reads inactive: -0.918%.
Consider `O=C(OC1CN2CCC1CC2)c1cccc(Cl)c1` (stereo not given), for which the inhibition is inactive: -5.78%.
For the compound `Nc1ccc([As](=O)(O)c2ccc([N+](=O)[O-])cc2)cc1`, the inhibition was inactive: -15.2%.
The result for `C(Cc1nn[nH]n1)Cc1nn[nH]n1` reads inactive: -2.73%.
As for `O=[As](O)(c1ccccc1)c1ccc(O)cc1`, the inhibition was inactive: 10%.
Regarding `O=[N+]([O-])c1ncn(CCn2cnc([N+](=O)[O-])n2)n1`, the inhibition was inactive: -16.7%.
Then `c1nnnn1CCn1cnnn1`, with inactive: 12%.
Then `CC(C)C(=O)NC(Sc1ccccc1)C(Cl)(Cl)Cl` (stereo not given), with inactive: -9.74%.
Then `O=P(Nc1nccs1)(c1ccccc1)c1ccccc1`, with inactive: -5.85%.
On to `CC(C)(C)C(=O)NC(Sc1ccccc1)C(Cl)(Cl)Cl` (stereo not given), for which the inhibition was inactive: 6.32%.
Then `CCOc1ccc(C2=NCC(CBr)S2)cc1` (stereo not given), with inactive: -2.48%.
Take `O=P1(Nc2nc3ccc(Cl)cc3s2)COc2ccccc2O1` (stereo not given): the inhibition was inactive: 0.662%.
The result for `CC(=O)Nc1ccc([As](=O)(O)O)c(O)c1` reads inactive: 1.86%; that for `C[C@@H]1C=CCP(=O)(Oc2ccccc2)O1` (stereo not given in full), inactive: -3.93%; that for `C[C@H]1OP(=O)(Oc2ccccc2)C[C@@H]2O[C@@H]21` (stereo not given in full), inactive: -7.42%.

The record behind these values is PubChem BioAssay AID489030 (Sanford-Burnham Center for Chemical Genomics, 2010).
